From paper PMC9369162, “Substrates of the Human Brain Proton-Organic Cation Antiporter and Comparison with Organic Cation Transporter 1 Activities” (International Journal of Molecular Sciences, 2022)

Biological target: T1, OCT1 (Homo sapiens, UniProt O15245)
T1 construct: expressed in transfected cells; host or cells: HEK293
T1 sequence (O15245 1-554): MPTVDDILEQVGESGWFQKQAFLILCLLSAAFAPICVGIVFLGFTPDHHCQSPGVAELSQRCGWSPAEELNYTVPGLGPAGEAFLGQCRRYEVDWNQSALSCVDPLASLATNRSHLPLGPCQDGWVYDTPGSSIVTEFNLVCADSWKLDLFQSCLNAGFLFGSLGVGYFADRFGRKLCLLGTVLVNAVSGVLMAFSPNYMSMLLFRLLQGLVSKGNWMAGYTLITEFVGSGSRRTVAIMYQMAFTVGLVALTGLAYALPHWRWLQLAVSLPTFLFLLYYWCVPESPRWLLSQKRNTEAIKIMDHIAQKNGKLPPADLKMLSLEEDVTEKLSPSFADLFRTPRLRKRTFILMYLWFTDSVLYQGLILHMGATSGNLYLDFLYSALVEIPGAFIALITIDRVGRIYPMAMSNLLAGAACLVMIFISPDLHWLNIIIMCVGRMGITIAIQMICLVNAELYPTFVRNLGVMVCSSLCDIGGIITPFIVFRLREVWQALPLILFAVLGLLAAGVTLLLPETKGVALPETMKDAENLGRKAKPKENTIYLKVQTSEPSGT
Assay: Cell uptake in OCT1 overexpressing HEK293 cells over empty-vector transfected cells
Type: cell-based

CNCCC(Oc1ccc(C(F)(F)F)cc1)c1ccccc1 (centres unmarked) [Fluoxetine]
OCT1 Ratio: 1.10

CC(CCc1ccccc1)NCC(O)c1ccc(O)c(C(N)=O)c1 (centres unmarked) [Labetalol]
OCT1 Ratio: 1.00
